Tested on: human erythrocytes
Experiment: In vitro toxicity (haemolysis of human erythrocytes)
Format: cell-based
Settings: 0.5 h
Protocol: Toxicity of compounds in vitro against animal cells was determined using standard for polyene macrolides procedure, by the determination of the degree of haemolysis of human erythrocytes. Human erythrocytes isolated from fresh, citrated human blood were washed twice with cold saline. The cells were diluted 250 times with saline and equilibrated for 30 minutes at 37° C. Samples of erythrocytes were incubated with various concentrations of antibiotics (the base solution in DMF) for 30 minutes at 37° C. After centrifugation the lysis of erythrocytes was assessed by determination of the haemoglobin released to the solution. Optical density of the supernatant was measured at […]. The results were expressed by EH50 value, as concentration of antibiotic at which 50% of hemolysis occurred. The values of EH50 were read from a curve relating the degree of hemolysis with antibiotic dose.

For “N-methyl-N-D-fructosylamphotericin B methyl ester [Example IX]”, the “EH50 (concentration at which 50% of hemolysis occurred)” value was “above 200 μg/ml”.

Source: US5942495A, “Antibiotics” (BTG International Limited, priority 1997, dated 1999)
